Data from patent publication US20260083674A1, “OXAZOLIDINONE LIPOSOME COMPOSITIONS” (priority 2021, published 2026).

How the values were obtained:
[1] = tested on: M. tuberculosis Erdman or H37Rv vs VERO or HepG2 cell lines; assay: Selectivity Index (IC50 mammalian cells / MIC bacteria); set-up: species or system Mycobacterium tuberculosis; settings: for Selectivity Index (SI) H37Rv/HepG2: IC50 HepG2 / MIC H37Rv; for Selectivity Index (SI) H37Rv/VERO: IC50 VERO / MIC H37Rv
[2] = Liposome loading: encapsulated drug-to-lipid ratio and encapsulation efficiency; assay type: physicochemical; settings: 1 N TEA-SOS liposomes, DL0 500 g/mol PhL, pH 4.38
Description: 1. The lipid components (phospholipid (PhL), cholesterol, and optionally—a PEG-lipid derivative and/or a lipid fluorescent label were combined in an amount of 100% ethanol equal to one-tenth of a volume (V) calculated to obtain lipid suspension with about 60 mM phospholipid and stirred at the temperature of 65-68° C. until complete dissolution of the lipids.
2. The ethanolic lipid solution was combined with volume V of the trapping agent solution (0.25-0.5 M ammonium sulfate or 1 N triethylammonium sucrose octasulfate) upon stirring at 65-68° C. until a uniform suspension was obtained.
3. […]
6. The lipid concentration in a purified extruded liposome preparation was determined using HPLC with UV detection, by measuring the concentration of cholesterol and correcting for the known phospholipid/cholesterol molar ratio. Alternatively, a spectrophotometric blue phosphomolybdate method was used to directly quantify the phospholipid content. […]
8. Purified liposomes of step 5 and the drug stock solution were combined in the presence of an osmotic agent (typically dextrose) and water in the amounts necessary to provide a desired drug-to-phospholipid (DL) ratio, the drug concentration in the range 1.5-3.3 mg/ml, at the osmolality equal to the measured osmolality of the trapping agent solution of step 2. […]

[3] = tested on: mitochondrial protein synthesis vs H37Rv M. tuberculosis; assay: MPS selectivity index (MPS IC50 / MIC H37Rv)

CN(C)CCn1nnc(-c2ccc(-c3ccc(N4C[C@H](CO)OC4=O)cc3F)cn2)n1 [AKG-16]
Selectivity Index (SI) H37Rv/HepG2 [1]: 364.0 | Selectivity Index (SI) H37Rv/VERO [1]: 388.0 | loading efficiency [2]: 93.3% | SI-MPS MPS/H37 [3]: 0.98

CC(=O)NC[C@H]1CN(c2ccc(-c3ccc(-c4nnn(CCN(C)C)n4)nc3)c(F)c2)C(=O)O1 [AKG-38]
Selectivity Index (SI) H37Rv/HepG2 [1]: 1616.7 | Selectivity Index (SI) H37Rv/VERO [1]: 6583.3 | SI-MPS MPS/H37 [3]: 0.69
